Legend:
E. coli = assay: FDAA/CDAA labeling of E. coli, fluorescence microscopy; assay type: cell-based, Escherichia coli; details: incubation with FDAA or CDAA (CDAA captured by azido/alkyne fluorophores)
B. subtilis = assay: FDAA/CDAA labeling of B. subtilis, fluorescence microscopy; assay type: cell-based, Bacillus subtilis; details: incubation with FDAA or CDAA (CDAA captured by azido/alkyne fluorophores)

With `C[C@@H](NN=[N+]=[N-])C(=O)O` as the compound, how does the “Labeling of E. coli” value (E. coli) read?
Its value is “labeled both E. coli and B. subtilis”.

And the “Labeling of B. subtilis” value (B. subtilis)?
Its value is “labeled both E. coli and B. subtilis”.

Source: patent US20160222430A1, “D-ALA-D-ALA-BASED DIPEPTIDES AS TOOLS FOR IMAGING PEPTIDOGLYCAN BIOSYNTHESIS” (INDIANA UNIVERSITY RESEARCH AND TECHNOLOGY CORPORATION, priority 2013, published 2016)
